The assay deals with CAP-activated channels in cultured neonatal rat dorsal root ganglion (DRG) neurons (Rattus norvegicus, UniProt O35433). Kind of assay: Capsaicin-activated single channel assay. Also noted: key to the marks not given beside the values. The settings on record: relative difference in ion conductance compared to CAP.

Sequences of proteins named here, by UniProt entry; tags and fusion partners are left off.
UniProt O35433, whole entry: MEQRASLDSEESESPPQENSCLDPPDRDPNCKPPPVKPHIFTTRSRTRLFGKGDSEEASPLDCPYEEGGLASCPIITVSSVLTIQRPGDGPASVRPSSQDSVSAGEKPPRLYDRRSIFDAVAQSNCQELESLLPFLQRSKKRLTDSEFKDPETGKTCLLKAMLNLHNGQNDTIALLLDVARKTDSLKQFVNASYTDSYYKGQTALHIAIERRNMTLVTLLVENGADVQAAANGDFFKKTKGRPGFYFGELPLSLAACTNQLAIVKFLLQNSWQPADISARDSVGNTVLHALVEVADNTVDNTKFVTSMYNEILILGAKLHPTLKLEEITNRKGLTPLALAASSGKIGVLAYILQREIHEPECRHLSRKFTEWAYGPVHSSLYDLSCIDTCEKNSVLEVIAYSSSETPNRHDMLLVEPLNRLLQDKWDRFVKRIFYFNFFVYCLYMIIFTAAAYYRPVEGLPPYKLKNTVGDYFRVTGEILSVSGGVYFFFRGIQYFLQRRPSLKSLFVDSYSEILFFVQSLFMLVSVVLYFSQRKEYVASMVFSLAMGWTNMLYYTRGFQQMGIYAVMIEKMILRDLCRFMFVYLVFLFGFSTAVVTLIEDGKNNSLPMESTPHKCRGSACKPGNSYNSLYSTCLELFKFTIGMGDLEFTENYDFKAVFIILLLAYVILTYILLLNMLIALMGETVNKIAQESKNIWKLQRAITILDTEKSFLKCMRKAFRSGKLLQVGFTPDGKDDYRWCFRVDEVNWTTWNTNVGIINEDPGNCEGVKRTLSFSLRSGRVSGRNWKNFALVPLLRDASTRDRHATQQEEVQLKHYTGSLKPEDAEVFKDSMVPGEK

For `COc1cc(CC(=O)NCC(COC(=O)C(C)(C)C)Cc2ccccc2)ccc1O` (stereo not shown), the Activations entry is “++”.

Source of the values: US6476076B1 (priority 1999, dated 2002).
